According to ChEMBL document CHEMBL2218924, “A broad activity screen in support of a chemogenomic map for kinase signalling research and drug discovery” (Biochem J, 2013):
For some assays here: The strong results were mostly taken out for another list; the other results follow. The rule behind the calls is not given here. Only a part is listed here, and it is no random draw.

Sequences of proteins named here, by UniProt entry; tags and fusion partners are left off. A change or cut given only in a name is not applied to a line headed by its entry.
UniProt Q05513: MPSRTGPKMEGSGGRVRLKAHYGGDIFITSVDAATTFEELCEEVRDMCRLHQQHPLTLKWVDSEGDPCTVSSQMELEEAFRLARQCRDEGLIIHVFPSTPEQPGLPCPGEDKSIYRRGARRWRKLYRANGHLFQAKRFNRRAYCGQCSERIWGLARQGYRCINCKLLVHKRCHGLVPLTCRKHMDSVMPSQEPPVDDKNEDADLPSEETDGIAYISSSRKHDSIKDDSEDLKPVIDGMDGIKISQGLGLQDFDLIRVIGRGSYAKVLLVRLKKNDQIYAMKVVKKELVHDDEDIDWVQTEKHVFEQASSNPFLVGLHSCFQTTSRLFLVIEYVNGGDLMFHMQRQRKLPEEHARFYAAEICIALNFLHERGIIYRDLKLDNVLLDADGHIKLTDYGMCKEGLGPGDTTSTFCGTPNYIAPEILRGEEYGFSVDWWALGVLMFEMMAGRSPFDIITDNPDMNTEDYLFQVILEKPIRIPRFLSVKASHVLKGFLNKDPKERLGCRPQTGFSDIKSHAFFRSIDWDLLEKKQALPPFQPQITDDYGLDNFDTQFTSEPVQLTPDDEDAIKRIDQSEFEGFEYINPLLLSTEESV
UniProt Q13882, whole entry, looked up: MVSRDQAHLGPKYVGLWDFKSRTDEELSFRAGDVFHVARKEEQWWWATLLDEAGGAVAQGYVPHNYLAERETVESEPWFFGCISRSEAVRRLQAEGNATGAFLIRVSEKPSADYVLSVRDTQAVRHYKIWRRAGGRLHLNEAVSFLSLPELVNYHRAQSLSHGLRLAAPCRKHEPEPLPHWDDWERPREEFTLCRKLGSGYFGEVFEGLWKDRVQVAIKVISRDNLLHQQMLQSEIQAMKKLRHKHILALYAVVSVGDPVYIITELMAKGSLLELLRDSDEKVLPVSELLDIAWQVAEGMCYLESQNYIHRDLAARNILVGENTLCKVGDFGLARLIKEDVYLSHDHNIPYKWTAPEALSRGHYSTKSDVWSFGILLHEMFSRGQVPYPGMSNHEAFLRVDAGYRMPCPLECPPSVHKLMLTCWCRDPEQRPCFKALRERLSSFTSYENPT
UniProt P67870, whole entry, looked up: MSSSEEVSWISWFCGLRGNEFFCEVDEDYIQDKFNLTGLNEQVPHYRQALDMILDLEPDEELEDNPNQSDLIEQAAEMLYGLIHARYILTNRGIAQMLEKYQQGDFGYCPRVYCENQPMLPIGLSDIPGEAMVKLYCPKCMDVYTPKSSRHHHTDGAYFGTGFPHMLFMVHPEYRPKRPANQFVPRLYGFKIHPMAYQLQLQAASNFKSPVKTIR
UniProt P68400, whole entry, looked up: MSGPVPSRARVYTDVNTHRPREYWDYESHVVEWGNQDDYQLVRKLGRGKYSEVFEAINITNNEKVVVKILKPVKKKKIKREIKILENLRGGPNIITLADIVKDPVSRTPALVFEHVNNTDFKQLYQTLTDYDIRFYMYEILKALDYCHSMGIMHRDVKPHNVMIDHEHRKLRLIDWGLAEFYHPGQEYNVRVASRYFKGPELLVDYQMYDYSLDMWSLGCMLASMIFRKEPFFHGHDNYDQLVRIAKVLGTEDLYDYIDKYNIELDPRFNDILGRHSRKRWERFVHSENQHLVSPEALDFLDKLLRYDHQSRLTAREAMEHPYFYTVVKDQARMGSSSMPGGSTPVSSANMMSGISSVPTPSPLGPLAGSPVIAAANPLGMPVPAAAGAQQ
UniProt P19784, whole entry, looked up: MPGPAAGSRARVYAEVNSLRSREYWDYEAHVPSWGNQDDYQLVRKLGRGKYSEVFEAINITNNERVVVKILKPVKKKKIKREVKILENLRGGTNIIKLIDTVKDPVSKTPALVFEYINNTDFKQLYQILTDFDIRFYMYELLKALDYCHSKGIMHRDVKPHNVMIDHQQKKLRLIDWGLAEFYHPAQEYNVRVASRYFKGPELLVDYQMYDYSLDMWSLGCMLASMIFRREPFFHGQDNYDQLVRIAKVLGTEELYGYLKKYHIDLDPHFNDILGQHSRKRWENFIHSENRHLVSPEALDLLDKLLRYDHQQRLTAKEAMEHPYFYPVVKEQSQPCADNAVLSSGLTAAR
UniProt P41240: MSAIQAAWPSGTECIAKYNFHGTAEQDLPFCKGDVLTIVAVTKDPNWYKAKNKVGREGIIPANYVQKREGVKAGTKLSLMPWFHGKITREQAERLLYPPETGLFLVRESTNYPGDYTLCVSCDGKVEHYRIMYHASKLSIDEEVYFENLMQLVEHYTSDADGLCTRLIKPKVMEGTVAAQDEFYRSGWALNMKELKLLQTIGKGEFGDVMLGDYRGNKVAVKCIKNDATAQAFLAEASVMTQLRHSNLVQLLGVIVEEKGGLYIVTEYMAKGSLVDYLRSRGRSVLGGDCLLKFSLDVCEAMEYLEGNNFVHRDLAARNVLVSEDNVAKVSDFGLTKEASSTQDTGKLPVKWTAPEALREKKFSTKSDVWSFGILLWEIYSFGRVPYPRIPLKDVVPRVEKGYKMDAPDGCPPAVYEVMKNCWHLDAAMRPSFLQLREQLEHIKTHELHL
UniProt P53355: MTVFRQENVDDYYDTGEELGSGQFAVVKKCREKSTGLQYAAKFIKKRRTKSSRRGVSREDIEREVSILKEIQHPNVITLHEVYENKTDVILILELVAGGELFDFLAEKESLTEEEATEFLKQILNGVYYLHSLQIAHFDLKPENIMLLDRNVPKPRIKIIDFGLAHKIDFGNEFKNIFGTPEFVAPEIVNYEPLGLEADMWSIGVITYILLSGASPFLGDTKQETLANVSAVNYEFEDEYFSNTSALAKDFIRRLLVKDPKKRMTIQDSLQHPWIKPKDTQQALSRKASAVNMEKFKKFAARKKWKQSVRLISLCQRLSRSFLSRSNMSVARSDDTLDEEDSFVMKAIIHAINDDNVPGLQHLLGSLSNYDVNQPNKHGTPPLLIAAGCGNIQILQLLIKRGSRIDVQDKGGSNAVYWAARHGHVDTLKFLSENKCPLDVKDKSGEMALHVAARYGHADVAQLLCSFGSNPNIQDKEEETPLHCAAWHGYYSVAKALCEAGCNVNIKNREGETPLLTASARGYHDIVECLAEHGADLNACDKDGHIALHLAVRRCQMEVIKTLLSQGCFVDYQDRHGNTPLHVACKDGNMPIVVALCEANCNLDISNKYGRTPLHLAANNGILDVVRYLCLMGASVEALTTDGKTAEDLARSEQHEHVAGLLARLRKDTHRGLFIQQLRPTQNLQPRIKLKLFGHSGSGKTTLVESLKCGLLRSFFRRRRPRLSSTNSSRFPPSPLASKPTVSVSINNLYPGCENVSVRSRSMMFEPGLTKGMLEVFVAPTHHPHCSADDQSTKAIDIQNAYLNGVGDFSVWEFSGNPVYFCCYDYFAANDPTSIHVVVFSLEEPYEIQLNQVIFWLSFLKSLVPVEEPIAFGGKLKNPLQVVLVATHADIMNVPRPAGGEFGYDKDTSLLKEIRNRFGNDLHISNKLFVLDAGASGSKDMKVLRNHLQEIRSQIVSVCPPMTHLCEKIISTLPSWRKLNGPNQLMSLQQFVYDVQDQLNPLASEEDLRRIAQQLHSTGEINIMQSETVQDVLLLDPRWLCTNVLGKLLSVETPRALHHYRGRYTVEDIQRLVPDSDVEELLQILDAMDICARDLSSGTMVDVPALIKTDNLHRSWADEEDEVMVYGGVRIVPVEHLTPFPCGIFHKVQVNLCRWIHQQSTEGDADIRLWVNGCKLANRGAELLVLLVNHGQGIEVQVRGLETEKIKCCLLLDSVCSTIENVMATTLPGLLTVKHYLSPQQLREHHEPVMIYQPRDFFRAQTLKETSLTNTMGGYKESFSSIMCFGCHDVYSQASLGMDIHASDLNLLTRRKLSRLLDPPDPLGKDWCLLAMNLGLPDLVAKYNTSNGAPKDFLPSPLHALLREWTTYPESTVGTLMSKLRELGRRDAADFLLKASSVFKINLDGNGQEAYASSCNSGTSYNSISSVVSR
UniProt Q9UIK4: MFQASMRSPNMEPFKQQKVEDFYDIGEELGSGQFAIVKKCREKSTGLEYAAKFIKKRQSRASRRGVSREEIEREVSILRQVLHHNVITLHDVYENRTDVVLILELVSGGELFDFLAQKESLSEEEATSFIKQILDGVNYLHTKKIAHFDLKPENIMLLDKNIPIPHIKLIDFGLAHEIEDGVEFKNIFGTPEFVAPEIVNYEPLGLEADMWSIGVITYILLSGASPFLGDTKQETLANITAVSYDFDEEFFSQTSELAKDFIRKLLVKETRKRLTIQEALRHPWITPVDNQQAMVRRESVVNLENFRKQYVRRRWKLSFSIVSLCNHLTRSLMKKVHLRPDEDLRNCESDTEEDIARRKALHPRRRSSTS
UniProt P29323: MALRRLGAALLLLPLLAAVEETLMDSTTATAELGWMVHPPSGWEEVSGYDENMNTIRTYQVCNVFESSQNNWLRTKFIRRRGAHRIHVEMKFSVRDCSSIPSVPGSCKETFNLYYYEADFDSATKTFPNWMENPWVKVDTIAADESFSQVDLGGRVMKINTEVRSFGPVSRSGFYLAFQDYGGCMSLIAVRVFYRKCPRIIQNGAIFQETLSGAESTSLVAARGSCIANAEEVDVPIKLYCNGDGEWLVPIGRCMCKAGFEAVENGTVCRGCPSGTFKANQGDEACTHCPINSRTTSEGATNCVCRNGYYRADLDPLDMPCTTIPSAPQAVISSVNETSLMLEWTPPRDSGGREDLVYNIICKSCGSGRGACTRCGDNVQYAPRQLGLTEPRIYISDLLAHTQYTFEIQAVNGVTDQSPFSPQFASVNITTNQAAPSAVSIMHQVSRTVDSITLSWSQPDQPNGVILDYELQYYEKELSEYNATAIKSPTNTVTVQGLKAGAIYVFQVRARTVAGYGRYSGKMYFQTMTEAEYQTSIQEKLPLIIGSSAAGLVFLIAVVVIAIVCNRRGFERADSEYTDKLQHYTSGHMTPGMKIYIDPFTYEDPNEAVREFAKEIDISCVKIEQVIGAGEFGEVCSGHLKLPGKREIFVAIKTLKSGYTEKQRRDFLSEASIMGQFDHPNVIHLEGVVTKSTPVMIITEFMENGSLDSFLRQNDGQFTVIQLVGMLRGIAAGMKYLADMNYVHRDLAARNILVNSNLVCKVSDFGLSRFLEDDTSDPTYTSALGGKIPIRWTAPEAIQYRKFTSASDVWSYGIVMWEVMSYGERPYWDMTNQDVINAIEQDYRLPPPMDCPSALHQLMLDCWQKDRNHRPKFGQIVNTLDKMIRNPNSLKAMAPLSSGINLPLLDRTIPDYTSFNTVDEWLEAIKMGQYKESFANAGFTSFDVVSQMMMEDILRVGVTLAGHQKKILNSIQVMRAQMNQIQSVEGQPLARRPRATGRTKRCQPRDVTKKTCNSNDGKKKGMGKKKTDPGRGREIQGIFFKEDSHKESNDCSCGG
UniProt P07332: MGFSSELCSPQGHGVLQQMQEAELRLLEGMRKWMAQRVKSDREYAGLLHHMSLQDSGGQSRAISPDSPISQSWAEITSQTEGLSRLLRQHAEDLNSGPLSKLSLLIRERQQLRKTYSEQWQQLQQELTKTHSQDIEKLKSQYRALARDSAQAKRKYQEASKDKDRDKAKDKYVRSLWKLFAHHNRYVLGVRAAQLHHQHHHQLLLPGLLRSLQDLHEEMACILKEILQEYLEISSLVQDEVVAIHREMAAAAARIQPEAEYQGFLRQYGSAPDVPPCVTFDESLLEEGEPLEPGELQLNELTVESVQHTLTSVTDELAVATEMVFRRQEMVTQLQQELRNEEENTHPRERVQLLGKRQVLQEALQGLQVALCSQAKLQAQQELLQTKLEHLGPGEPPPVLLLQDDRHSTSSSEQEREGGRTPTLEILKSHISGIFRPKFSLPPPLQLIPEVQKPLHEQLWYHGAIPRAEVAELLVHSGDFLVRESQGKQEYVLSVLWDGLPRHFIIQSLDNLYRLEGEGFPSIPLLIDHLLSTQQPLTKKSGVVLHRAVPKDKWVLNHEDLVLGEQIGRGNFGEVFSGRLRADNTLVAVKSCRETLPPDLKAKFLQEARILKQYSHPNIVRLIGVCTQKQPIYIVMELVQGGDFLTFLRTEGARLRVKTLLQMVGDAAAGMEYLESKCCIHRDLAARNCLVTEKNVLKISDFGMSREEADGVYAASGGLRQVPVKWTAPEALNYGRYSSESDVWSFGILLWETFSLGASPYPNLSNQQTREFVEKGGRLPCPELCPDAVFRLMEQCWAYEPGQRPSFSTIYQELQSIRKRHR

Key:
[1] = target: Protein kinase C zeta type (Homo sapiens) (UniProt Q05513); conditions: at 1 µM
[2] = target: Protein-tyrosine kinase 6 (Homo sapiens) (UniProt Q13882); conditions: at 1 µM
[3] = target: T1, Casein kinase II (Homo sapiens) (UniProt P67870+P68400+P19784); conditions: at 1 µM
[4] = target: T1, Casein kinase II (Homo sapiens); conditions: at 10 µM
[5] = target: Tyrosine-protein kinase CSK (Homo sapiens) (UniProt P41240); conditions: at 10 µM
[6] = target: Death-associated protein kinase 1 (Homo sapiens) (UniProt P53355); conditions: at 1 µM
[7] = target: Death-associated protein kinase 2 (Homo sapiens) (UniProt Q9UIK4); conditions: at 1 µM
[8] = target: T2, Discoidin domain-containing receptor 2 (Homo sapiens) (UniProt Q16832); conditions: at 1 µM
T2 sequence (whole entry): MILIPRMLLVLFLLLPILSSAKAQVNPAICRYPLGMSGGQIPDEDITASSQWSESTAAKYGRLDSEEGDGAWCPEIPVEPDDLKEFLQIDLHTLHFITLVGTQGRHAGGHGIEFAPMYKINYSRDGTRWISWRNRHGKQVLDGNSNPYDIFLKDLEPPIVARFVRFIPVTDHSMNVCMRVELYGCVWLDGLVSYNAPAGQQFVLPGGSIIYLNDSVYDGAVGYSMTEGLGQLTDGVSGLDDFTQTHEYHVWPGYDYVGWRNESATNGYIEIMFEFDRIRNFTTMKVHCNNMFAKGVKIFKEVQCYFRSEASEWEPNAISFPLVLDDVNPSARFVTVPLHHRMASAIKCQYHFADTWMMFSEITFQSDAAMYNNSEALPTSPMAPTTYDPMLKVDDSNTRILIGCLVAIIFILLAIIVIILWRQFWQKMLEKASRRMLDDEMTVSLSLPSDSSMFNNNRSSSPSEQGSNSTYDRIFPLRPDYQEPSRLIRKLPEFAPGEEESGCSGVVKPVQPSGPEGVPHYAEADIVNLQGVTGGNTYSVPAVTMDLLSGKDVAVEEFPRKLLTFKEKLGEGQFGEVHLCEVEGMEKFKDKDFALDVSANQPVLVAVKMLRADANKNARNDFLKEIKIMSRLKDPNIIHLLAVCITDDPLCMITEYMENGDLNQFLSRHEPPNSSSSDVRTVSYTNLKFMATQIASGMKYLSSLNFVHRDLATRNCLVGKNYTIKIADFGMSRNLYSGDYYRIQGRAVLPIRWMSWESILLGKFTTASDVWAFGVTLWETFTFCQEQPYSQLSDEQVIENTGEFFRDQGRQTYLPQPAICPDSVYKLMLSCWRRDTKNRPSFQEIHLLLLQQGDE

[9] = target: T3, Ephrin type-A receptor 3 (Homo sapiens) (UniProt P29320); conditions: at 1 µM
T3 sequence (whole entry): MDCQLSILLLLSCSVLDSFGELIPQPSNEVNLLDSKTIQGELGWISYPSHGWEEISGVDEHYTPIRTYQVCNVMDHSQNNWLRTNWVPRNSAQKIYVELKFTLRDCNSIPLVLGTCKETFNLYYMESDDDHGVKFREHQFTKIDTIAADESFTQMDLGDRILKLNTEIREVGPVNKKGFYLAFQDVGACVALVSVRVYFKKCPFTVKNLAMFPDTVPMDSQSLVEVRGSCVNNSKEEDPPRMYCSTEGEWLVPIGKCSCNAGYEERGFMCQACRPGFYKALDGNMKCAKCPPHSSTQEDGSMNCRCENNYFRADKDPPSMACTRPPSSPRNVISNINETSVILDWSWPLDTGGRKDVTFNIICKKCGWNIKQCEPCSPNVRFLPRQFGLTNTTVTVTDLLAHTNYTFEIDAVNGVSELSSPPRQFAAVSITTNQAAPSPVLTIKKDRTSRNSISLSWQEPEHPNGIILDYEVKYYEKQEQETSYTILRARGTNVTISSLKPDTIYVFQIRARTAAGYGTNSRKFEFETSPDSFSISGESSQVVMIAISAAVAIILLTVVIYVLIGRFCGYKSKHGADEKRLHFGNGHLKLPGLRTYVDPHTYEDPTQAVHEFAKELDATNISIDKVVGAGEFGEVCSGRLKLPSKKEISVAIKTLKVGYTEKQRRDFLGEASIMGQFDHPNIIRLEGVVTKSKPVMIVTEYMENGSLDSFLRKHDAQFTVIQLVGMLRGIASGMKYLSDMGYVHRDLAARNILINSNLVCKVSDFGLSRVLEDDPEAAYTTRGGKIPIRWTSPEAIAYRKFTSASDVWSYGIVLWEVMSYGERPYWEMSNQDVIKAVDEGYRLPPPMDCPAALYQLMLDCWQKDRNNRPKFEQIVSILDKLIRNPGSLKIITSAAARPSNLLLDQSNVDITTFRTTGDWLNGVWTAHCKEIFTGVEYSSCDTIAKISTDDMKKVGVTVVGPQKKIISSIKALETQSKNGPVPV

[10] = target: Ephrin type-A receptor 4 (Homo sapiens) (UniProt P54764); conditions: at 1 µM
[11] = target: T4, Ephrin type-A receptor 8 (Homo sapiens) (UniProt P29322); conditions: at 1 µM
T4 sequence (whole entry): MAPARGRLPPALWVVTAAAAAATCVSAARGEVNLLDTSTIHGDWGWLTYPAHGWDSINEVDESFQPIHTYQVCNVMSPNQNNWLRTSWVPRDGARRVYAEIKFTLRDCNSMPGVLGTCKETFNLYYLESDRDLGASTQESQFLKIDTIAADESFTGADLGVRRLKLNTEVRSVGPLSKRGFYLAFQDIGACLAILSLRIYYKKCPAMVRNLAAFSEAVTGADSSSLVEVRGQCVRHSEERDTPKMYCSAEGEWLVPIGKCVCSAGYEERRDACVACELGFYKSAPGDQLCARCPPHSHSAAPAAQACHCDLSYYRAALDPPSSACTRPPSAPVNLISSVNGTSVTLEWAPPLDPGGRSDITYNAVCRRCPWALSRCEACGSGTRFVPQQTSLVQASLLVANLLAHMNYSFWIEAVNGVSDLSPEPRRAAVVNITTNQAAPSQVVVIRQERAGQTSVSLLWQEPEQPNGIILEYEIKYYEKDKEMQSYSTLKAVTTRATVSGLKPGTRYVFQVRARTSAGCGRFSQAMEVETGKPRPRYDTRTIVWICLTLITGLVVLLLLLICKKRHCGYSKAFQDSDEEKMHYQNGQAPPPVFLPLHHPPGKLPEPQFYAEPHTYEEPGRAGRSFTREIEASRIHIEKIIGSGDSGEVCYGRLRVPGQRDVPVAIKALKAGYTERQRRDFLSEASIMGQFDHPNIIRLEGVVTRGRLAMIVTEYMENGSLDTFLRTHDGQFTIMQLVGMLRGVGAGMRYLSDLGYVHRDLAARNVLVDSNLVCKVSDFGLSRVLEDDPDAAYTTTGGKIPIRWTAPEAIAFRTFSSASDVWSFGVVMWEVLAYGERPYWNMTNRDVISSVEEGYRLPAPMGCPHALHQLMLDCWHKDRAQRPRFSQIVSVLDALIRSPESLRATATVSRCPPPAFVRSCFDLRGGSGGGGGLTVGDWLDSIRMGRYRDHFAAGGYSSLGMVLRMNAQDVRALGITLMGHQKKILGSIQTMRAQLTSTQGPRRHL

[12] = target: T5, Ephrin type-B receptor 1 (Homo sapiens) (UniProt P54762); conditions: at 1 µM
T5 sequence (whole entry): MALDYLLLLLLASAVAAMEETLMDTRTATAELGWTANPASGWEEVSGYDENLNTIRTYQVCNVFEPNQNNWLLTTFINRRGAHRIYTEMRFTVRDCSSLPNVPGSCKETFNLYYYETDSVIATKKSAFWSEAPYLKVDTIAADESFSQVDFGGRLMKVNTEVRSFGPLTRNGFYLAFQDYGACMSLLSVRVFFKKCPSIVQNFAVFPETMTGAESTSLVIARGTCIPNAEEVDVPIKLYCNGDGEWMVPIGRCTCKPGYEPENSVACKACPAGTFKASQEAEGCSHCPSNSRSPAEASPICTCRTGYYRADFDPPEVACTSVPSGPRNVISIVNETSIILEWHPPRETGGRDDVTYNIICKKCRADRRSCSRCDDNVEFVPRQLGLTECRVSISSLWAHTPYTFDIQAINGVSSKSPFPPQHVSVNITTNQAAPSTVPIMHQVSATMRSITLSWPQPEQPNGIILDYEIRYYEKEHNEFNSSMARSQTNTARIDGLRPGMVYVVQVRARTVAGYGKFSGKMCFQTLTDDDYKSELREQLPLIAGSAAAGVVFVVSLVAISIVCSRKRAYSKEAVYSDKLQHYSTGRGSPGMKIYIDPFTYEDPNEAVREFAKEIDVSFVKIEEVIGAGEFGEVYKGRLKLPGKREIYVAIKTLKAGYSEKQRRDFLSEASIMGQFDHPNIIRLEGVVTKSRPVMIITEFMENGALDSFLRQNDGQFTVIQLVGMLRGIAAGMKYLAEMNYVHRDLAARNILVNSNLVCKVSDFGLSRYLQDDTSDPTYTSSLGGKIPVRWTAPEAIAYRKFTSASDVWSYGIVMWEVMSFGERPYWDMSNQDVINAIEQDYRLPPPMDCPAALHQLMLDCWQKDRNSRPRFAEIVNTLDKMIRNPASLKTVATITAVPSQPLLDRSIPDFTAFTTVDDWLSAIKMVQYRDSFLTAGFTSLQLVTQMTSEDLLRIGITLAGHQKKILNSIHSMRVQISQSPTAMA

[13] = target: Ephrin type-B receptor 2 (Homo sapiens) (UniProt P29323); conditions: at 1 µM
[14] = target: Tyrosine-protein kinase Fes/Fps (Homo sapiens) (UniProt P07332); conditions: at 1 µM

**Q.** `O=C(c1cc2cc(O)ccc2[nH]1)c1cc2cc(O)ccc2[nH]1` was tested. Which residual activity [1] did it give?
**A.** inactive: 103%

**Q.** And the residual activity [2]?
**A.** 90%

**Q.** And the residual activity [3]?
**A.** 93%

**Q.** What about the residual activity [4] of the same molecule?
**A.** 88%

**Q.** And the residual activity [5]?
**A.** 89%

**Q.** And the residual activity [6]?
**A.** 90%

**Q.** And the residual activity [7]?
**A.** 88%

**Q.** What about the residual activity [8] of the same molecule?
**A.** 95%

**Q.** And the residual activity [9]?
**A.** 90%

**Q.** And the residual activity [10]?
**A.** 96%

**Q.** And the residual activity [11]?
**A.** 85%

**Q.** And the residual activity [12]?
**A.** 84%

**Q.** What about the residual activity [13] of the same molecule?
**A.** 88%

**Q.** And the residual activity [14]?
**A.** 87%
